From ChEMBL document CHEMBL1641500, “Carbonic anhydrase inhibitors. Inhibition studies with anions and sulfonamides of a new cytosolic enzyme from the scleractinian coral Stylophora pistillata” (Bioorg Med Chem Lett, 2011)

Target: Carbonic anhydrase 6 (Homo sapiens, UniProt P23280)

O=[As](O)(O)c1ccccc1
Ki: 13.9 nM
